Reference: PubChem BioAssay AID463210 (The Scripps Research Institute Molecular Screening Center, 2010)
The entries are a selection whose mix differs from that of the whole data set. Calls of active or inactive are those of the source.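 How the source made its calls: active means percent activation above the screen-wide mean plus 3 SD (cut at about 25% in these data); inactive means the rest.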

By UniProt entry, the sequences of proteins in these tests, tags left out.
UniProt P55210, whole entry D23A/D198A/D206A: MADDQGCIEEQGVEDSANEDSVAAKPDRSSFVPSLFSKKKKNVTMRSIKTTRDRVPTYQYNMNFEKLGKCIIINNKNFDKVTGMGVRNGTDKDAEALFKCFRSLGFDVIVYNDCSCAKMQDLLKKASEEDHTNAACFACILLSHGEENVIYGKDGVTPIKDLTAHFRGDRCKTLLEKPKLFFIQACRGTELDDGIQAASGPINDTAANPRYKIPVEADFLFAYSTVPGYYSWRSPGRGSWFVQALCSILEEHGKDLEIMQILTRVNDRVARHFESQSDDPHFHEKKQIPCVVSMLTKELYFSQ

Target: Caspase-7 (Homo sapiens) (UniProt P55210)
Assay: procaspase-7 activators, primary screen, counter-screen for procaspase-3 activator project, biochemical, absorbance, HTS, human (AID 463210)
Conditions: recombinant procaspase-7, Ac-DEVD-pNA absorbance 405 nm; at 8.5 µM; active compounds read high; D23A/D198A/D206A triple mutant, cannot self-cleave; scale: DMSO 0, 5 µM enzyme 100

Row | Structure (SMILES) | activation
1 | CCC(=O)N(c1ccccc1)C1(COC)CCN(CCn2nnn(CC)c2=O)CC1 | inactive: -2.41%
2 | CCC(=O)N(c1ccccc1)C1(COC)CCN(CCc2cccs2)CC1 | inactive: -13.7%
